Laboratory results from US7696246B2 (Ligand Pharmaceuticals Incorporated, priority 1999, dated 2010).

Sequences of proteins named here, by UniProt entry; tags and fusion partners are left off.
UniProt P10275, whole entry: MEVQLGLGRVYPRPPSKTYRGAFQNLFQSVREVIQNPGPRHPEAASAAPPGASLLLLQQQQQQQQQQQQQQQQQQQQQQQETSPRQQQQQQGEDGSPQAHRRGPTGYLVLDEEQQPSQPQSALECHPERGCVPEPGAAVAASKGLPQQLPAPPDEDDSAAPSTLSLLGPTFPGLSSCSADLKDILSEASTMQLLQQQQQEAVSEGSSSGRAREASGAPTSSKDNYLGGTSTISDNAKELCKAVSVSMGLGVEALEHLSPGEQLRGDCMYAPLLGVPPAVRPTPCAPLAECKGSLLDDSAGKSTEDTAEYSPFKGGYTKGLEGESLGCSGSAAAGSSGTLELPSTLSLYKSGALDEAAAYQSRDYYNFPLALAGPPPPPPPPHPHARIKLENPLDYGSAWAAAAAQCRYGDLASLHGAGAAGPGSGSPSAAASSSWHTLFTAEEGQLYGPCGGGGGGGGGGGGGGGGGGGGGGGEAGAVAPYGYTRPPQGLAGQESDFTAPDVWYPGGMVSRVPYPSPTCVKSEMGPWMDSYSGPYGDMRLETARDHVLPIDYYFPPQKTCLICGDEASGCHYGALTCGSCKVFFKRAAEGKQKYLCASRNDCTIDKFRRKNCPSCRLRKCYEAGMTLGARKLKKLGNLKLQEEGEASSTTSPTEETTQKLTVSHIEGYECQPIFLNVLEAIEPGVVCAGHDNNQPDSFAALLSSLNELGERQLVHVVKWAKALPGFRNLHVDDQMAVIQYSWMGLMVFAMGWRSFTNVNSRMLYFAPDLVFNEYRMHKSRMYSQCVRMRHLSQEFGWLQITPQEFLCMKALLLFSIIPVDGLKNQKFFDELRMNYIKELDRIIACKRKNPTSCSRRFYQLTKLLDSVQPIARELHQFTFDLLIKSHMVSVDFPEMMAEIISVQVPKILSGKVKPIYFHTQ

Legend:
human AR [1] = target: T1, human AR (Homo sapiens, UniProt P10275); test: Co-transfection assay, AR agonist activity (CV-1 cells, MTV-LUC reporter); format: cell-based
human AR [2] = target: T1, human AR; test: AR whole cell competitive binding assay (COS-1 cells, 3H-DHT); conditions: read-out: AR Binding Ki, 1 nM 3H-DHT, Cheng-Prusoff

## CC=C(CC)c1ccc2[nH]c(=O)cc(C(F)(F)F)c2c1
Human AR [1]; percent maximal response relative to reference agonist DHT
  AR Agonist CV-1 Cells Efficacy (%): 48%
Human AR [1]; read-out: AR Agonist CV-1 Cells Potency, agonist potency EC50
  EC50: 848 nM
Human AR [2]
  Ki: 36 nM
